Test results published in patent publication US20230121313A1 (priority 2019, published 2023).
“Also recorded” adds a separate entry of the source.

What was measured:
NMDA receptor = details: cited from earlier work
[1] = system: female Sprague-Dawley rats; assay: Single dose neurotoxicity study, intranasal esketamine HCl (clinical observations, brain histopathology, toxicokinetics); details: for Brain histopathology (neuronal necrosis / Olney lesions in PCG/RSC): esketamine HCl intranasal up to 72 mg, 48 and 96 h post-dose
[2] = system: female Sprague-Dawley rats; assay: 14-day repeated dose neurotoxicity study, intranasal esketamine HCl (clinical observations, brain histopathology, toxicokinetics); details: for Brain histopathology (neuronal necrosis / Olney lesions in PCG/RSC): 14-day study, esketamine HCl intranasal up to 54 mg/day, (+)MK-801 maleate single 1 mg/kg sc, 48 h after last dose

(+)MK-801 maleate [reference compound]
Potency of the (+)-enantiomer relative to the (−)-enantiomer (NMDA receptor): 7 times
Body weight loss within the first 48 hours after treatment ([1]; (+)MK-801 maleate 1 mg/kg sc): 13-14%
Severity grade of neuronal necrosis in PCG/RSC (most lesions) ([1]; (+)MK-801 maleate 1 mg/kg sc, both studies): moderate or marked (grade 3 or 4)
Animals (of 30 females) with lesions scored marked ([1]; (+)MK-801 maleate 1 mg/kg sc, single dose study): 25
Mortality ([1]; (+)MK-801 maleate single 1 mg/kg sc, single dose and repeated dose study): No mortality was noted
Maximum tolerated dose (MTD) for a single subcutaneous injection ([1]; dose-range finding study, female Sprague-Dawley rats 13-14 weeks): 1 mg/kg body weight
Brain histopathology (neuronal necrosis / Olney lesions in PCG/RSC) ([1]; single dose study, (+)MK-801 maleate 1 mg/kg sc): neuronal necrosis was observed; also recorded: neuronal necrosis in the PCG/RSC of all animals
Brain histopathology (neuronal necrosis / Olney lesions in PCG/RSC) ([1]; single dose study, (+)MK-801 maleate 1 mg/kg sc, listed as (+)MK801 maleate): induced neurodegenerative lesions
Brain histopathology (neuronal necrosis / Olney lesions in PCG/RSC) ([2]; 1 mg/kg): presence
Brain histopathology (neuronal necrosis / Olney lesions in PCG/RSC) ([2]; listed as (+)MK-801, 1 mg/kg): presence; also recorded: showed neuronal necrosis
Animals (of 12) with lesions scored marked ([2]; (+)MK-801 maleate 1 mg/kg sc, repeated dose study): 7
